In PubChem BioAssay AID602314 (ICCB-Longwood Screening Facility, Harvard Medical School, 2012):
This is a selection; strong and weak results do not stand in their true shares. Some tests of the compounds listed are not included; inactive here does not mean inactive elsewhere. Activity calls are given as the source filed them. Rule as the data show it: active = inhibition above about 30% (passing the limit was not always enough); inactive = the rest.

Each compound was assayed on MgrA (MarR family transcriptional regulator), Staphylococcus aureus Newman (assay: modulators of MgrA DNA binding – biochemical, S. aureus Newman, fluorescence polarization, primary screen (AID 602314;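 also: 0% = protein plus DNA without compound and 100% = DNA alone without protein; higher means less MgrA bound to DNA so lower polarization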)). Settings: stronger effect = higher value, concentration not given here.
For O=C(OC1CN2CCC1CC2)C(CO)(c1ccccc1)c1ccccc1 (configuration not stated), the inhibition was inactive: -3.55%. CN1C2CCC1CC(OC(=O)C(O)(c1ccccc1)c1ccccc1)C2 (configuration not stated) was tested, and the inhibition was inactive: -0.55%.
